The numbers were not newly measured in patent US4098781A, “Polypeptides with morphine-like activity” (American Home Products Corporation, priority 1977, dated 1978), which cites them from elsewhere.

The test system of the data set is rats. The following applies: injection in the brain ventricle; cited from earlier work.

Turning to “H-Tyr-Gly-Gly-Phe-Leu-OH [leucine-enkephalin]”, the analgesia result is “induce a profound analgesia that is fully reversible by naloxone”.
